From patent US9422240B2, “Partially saturated nitrogen-containing heterocyclic compound” (TAISHO PHARMACEUTICAL CO., LTD, priority 2012, dated 2016)

Chains of the proteins cited; added tags and fusions are not shown.
UniProt Q9GZT9, whole entry: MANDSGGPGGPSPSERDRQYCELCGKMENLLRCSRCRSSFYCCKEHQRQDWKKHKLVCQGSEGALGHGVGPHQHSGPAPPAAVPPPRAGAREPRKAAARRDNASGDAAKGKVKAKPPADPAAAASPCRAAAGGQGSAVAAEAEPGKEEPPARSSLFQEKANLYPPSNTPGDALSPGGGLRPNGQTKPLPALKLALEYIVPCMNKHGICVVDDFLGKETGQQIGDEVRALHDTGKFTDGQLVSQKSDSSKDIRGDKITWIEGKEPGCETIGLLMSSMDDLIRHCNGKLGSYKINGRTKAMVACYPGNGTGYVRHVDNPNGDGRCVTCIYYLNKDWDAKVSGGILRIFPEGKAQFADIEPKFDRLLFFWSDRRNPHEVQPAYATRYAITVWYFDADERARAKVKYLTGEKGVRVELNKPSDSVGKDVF

Tests used:
human PHD2 [1] = target: T1, human PHD2 (Homo sapiens (Human), UniProt Q9GZT9); test: Test 1: human PHD2 inhibitory activity, [14C]-2-oxoglutarate to [14C]-succinic acid radiometric assay with HIF-1α peptide; assay type: biochemical; conditions: test compound's concentration 1 μM; Test 1, [14C]-2-oxoglutarate radiometric assay
human PHD2 [2] = target: T1, human PHD2; test: Test 2: human PHD2 inhibitory activity, fluorescence polarization assay of HIF-1α peptide proline hydroxylation; assay type: biochemical

- Percent inhibition (% at 1 μM) (human PHD2 [1]): 104%
- IC50 (human PHD2 [2]; human PHD2, fluorescence polarization assay, 20-min incubation at 30° C.): 59 nM
- Percent inhibition (% at 1 μM) (human PHD2 [2]; test compound's concentration 1 μM, Test 2, fluorescence polarization assay): 98%
SMILES: O=C(O)CNC(=O)C1=C(O)CCN(Cc2ccc(Oc3ccc(F)cc3)cc2)C1=O
